The values that follow come from patent publication US20160326142A1, “PYRAZOLE CARBOXAMIDE COMPOUNDS, COMPOSITIONS AND METHODS OF USE” (Genentech, Inc., priority 2012, published 2016).

SMILES strings stand for the structures. pKi: −log10 of the molar value.

This assay deals with T1, ITK (Homo sapiens, UniProt Q08881).
T1 construct: purchased Invitrogen PV3875
T1 sequence (Q08881 1-620): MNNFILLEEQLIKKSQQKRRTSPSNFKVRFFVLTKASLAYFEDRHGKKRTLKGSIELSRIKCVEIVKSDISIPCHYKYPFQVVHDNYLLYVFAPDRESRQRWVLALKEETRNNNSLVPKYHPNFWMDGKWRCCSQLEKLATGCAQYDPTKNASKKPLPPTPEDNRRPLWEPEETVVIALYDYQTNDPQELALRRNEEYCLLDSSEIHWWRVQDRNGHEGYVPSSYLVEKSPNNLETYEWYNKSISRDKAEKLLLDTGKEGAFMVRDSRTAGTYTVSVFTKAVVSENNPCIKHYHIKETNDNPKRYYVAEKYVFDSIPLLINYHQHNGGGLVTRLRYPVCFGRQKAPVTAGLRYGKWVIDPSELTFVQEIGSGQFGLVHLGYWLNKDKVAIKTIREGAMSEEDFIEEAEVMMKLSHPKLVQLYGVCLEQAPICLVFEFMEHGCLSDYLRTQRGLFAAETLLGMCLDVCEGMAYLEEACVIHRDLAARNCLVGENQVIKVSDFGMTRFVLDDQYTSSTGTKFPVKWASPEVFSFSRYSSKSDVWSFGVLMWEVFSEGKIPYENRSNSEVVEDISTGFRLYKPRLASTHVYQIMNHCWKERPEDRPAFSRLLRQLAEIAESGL
Put plainly: ITK enzyme assay (Caliper or LCMS peptide phosphorylation). It counts as biochemical. Conditions: purified ITK (Invitrogen PV3875), 20 μM ATP, Ki by Morrison's quadratic equation. The protocol:
The ability of purified ITK (Invitrogen PV3875) to catalyze peptide phosphorylation is monitored using a Caliper LabChip 3000 microfluidic unit (Caliper assay) or by liquid chromatography-mass spectrometry (LCMS) using a Waters Acquity system (LCMS assay). […] Reactions are quenched by the addition of 2,2′,2″,2′″-(ethane-1,2-diyldinitrilo)tetraacetic acid (50 mM final). Non-phosphorylated substrate and phosphorylated product peptides are separated and quantified using a Caliper LabChip 3000 instrument. […] Reactions are quenched by the addition of trichloroacetic acid (5% v/v final). Non-phosphorylated substrate and phosphorylated product peptides are separated by ultra performance LC and detected by a coupled triple quadrupole MS device applying multiple reaction monitoring (MRM) for quantification. The area of the MRM-extracted mass signal is used to assess the inhibition by test compounds. Equilibrium dissociation constant (Ki) values for ITK inhibitors are calculated from plots of activity vs. inhibitor concentration using Morrison's quadratic equation that accounts for the potential of tight binding, and by also applying the conversion factor that accounts for competitive inhibition and the concentration of ATP used in the assay relative to its apparent Michaelis constant (Km,app).
The compound `CC1CCc2c(C(=O)Nc3cnn(Cc4ccccc4)c3)n[nH]c2C1` (single isomer, unassigned) [Example 9a, N-(1-benzyl-1H-pyrazol-4-yl)-6-methyl-4,5,6,7-tetrahydro-1H-indazole-3-carboxamide] had a pKi of 7.08.

As to `CC1CCc2c(C(=O)Nc3cnn(Cc4ccccc4)c3)n[nH]c2C1` (single isomer, unassigned) [Example 9b, N-(1-benzyl-1H-pyrazol-4-yl)-6-methyl-4,5,6,7-tetrahydro-1H-indazole-3-carboxamide], the pKi was 7.66. This pKi is 0.58 log units higher than that of the compound before.

In turn, `CC1(CO)CCc2c(C(=O)Nc3cnn(Cc4ccccc4)c3)n[nH]c2C1` (single isomer, unassigned) [Example 19b, N-(1-benzyl-1H-pyrazol-4-yl)-6-(hydroxymethyl)-6-methyl-4,5,6,7-tetrahydro-1H-indazole-3-carboxamide] gave a pKi of 8.10. In the case of `O=C(Nc1cnn(Cc2ccccc2)c1)c1n[nH]c2c1CC1CC1C2` (single isomer, unassigned) [Example 22a, N-(1-benzyl-1-pyrazol-4-yl)-1,4,4a,5,5a,6-hexahydrocyclopropa[f]indazole-3-carboxamide] it was 6.72; in that of `O=C(Nc1cnn(Cc2ccccc2)c1)c1n[nH]c2c1CC1CC1C2` (single isomer, unassigned) [Example 22b, N-(1-benzyl-1-pyrazol-4-yl)-1,4,4a,5,5a,6-hexahydrocyclopropa[f]indazole-3-carboxamide], 7.43; in that of `Cc1cccc(C(CCN(C)C)n2cc(NC(=O)c3n[nH]c4c3CCC(C)(C)C4)cn2)c1` (single isomer, unassigned) [Example 36a, N-(1-(3-(dimethylamino)-1-(m-tolyl)propyl)-1H-pyrazol-4-yl)-6,6-dimethyl-4,5,6,7-tetrahydro-1H-indazole-3-carboxamide], 9.15.

As for `COC1(C)CCc2c(C(=O)Nc3cnn(Cc4ccccc4)c3)n[nH]c2C1` (single isomer, unassigned) [Example 48a, N-(1-benzyl-1H-pyrazol-4-yl)-6-methoxy-6-methyl-4,5,6,7-tetrahydro-1H-indazole-3-carboxamide], the pKi is 6.74.

The compound `COC1(C)CCc2c(C(=O)Nc3cnn(Cc4ccccc4)c3)n[nH]c2C1` (single isomer, unassigned) [Example 48b, N-(1-benzyl-1H-pyrazol-4-yl)-6-methoxy-6-methyl-4,5,6,7-tetrahydro-1H-indazole-3-carboxamide] had a pKi of 6.55.

Consider `O=C(Nc1cnn(Cc2ccccc2)c1)c1n[nH]c2c1CCC1(CCOC1)C2` (single isomer, unassigned) [Example 65b, N-(1-benzyl-1H-pyrazol-4-yl)-1′,4,4′,5,5′,7′-hexahydro-2H-spiro[furan-3,6′-indazole]-3′-carboxamide], for which the pKi is 7.25. This pKi is 0.70 log units higher than that of the compound before. For `CC1(C)CCc2c(C(=O)Nc3cnn(Cc4ccccc4)c3)n[nH]c2C1` [Example 6, N-(1-benzyl-1H-pyrazol-4-yl)-6,6-dimethyl-4,5,6,7-tetrahydro-1H-indazole-3-carboxamide], the pKi was 8.28. `CC1(C)CCc2[nH]nc(C(=O)Nc3cnn(Cc4ccccc4)c3)c2C1` [Example 7, N-(1-benzyl-1H-pyrazol-4-yl)-5,5-dimethyl-4,5,6,7-tetrahydro-1H-indazole-3-carboxamide] had a pKi of 7.16.

As for `O=C(Nc1cnn(Cc2ccccc2)c1)c1n[nH]c2c1CCC1(CC1)C2` [Example 11, N-(1-benzyl-1H-pyrazol-4-yl)-1′,4′,5′,7′-tetrahydrospiro[cyclopropane-1,6′-indazole]-3′-carboxamide], the pKi was 8.00. As for `O=C(Nc1cnn(Cc2ccccc2)c1)c1n[nH]c2c1CCC1(COC1)C2` [Example 12, N-(1-benzyl-1H-pyrazol-4-yl)-1,4,5,7-tetrahydrospiro[indazole-6,3′-oxetane]-3-carboxamide], the pKi was 7.12.

`O=C(Nc1cnn(Cc2ccccc2)c1)c1n[nH]c2c1CCC(F)(F)C2` [Example 18, N-(1-benzyl-1H-pyrazol-4-yl)-6,6-difluoro-4,5,6,7-tetrahydro-1H-indazole-3-carboxamide] showed a pKi of 6.74. As to `CC1(CO)CCc2c(C(=O)Nc3cnn(Cc4ccccc4)c3)n[nH]c2C1` (stereo not shown) [Example 19a, N-(1-benzyl-1H-pyrazol-4-yl)-6-(hydroxymethyl)-6-methyl-4,5,6,7-tetrahydro-1H-indazole-3-carboxamide], the pKi is 6.89.

Regarding `O=C(Nc1cnn(Cc2ccccc2)c1)c1n[nH]c2c1CCC1(CCOC1)C2` (stereo not shown) [Example 65a, N-(1-benzyl-1H-pyrazol-4-yl)-1′,4,4′,5,5′,7′-hexahydro-2H-spiro[furan-3,6′-indazole]-3′-carboxamide], the pKi is 7.38.
